Literature values in patent publication US20040241244A1, “Neuronal growth enhancement by prostaglandin compositions and methods” (NexMed (Holdings) Inc., priority 2003, published 2004).

Chains of the proteins cited; added tags and fusions are not shown. Lines headed by an entry give the natural chain unless they say otherwise; changes in a name come on top.
UniProt P32240: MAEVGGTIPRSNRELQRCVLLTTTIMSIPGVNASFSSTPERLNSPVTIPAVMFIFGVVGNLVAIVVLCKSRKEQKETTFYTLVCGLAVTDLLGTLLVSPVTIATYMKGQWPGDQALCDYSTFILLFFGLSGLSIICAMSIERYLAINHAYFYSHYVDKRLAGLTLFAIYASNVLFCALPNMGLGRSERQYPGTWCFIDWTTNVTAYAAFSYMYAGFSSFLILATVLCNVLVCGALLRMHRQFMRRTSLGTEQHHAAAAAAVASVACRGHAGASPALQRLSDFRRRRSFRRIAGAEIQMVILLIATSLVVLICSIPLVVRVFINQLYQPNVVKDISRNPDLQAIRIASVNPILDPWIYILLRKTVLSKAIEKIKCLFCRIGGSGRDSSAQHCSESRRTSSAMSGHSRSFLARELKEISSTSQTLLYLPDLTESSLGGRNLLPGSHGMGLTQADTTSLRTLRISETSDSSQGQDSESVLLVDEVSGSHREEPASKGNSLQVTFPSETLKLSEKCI

Molecular target: EP4 receptor (Mus musculus, UniProt P32240)
Settings: read-out: affinity for the EP4 receptor; cited from earlier work

Compound: CCCCC[C@H](O)/C=C/[C@H]1[C@H](O)CC(=O)[C@@H]1C/C=C\CCCC(=O)O [PGE2, Prostaglandin E2]
- Kd: ~2 nM
